Literature values in patent publication US8835599B2, “Segmented degradable polymers and conjugates made therefrom” (Nektar Therapeutics, priority 2006, dated 2014).

Conditions: in vivo; pegylated (40 kDa) interferon alpha-2a

PEGASYS: PEG interferon marketed under the PEGASYS brand; pegylated (40 kDa) interferon alpha-2a
PEG associated with the conjugate cleared by cleavage of a urethane bond: up to 30%
